# Paper PMC10215400, “The Effectiveness of Imipenem–Relebactam against Ceftazidime-Avibactam Resistant Variants of the KPC-2 β-Lactamase” (Antibiotics, 2023)
# Amino acid sequences for entries named in this document (tags omitted). Residues count along the entry.
# UniProt Q93LQ9, 25-293 D178N: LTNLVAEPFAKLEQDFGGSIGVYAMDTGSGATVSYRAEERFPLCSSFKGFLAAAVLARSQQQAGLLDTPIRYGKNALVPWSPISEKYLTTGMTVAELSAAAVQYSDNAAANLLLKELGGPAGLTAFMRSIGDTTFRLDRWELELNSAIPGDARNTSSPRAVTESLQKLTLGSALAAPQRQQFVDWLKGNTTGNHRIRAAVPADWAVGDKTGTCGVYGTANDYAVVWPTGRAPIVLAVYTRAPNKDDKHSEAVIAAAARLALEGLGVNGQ
# Molecular target: KPC-2 β-lactamase D179N variant (Klebsiella pneumoniae, UniProt Q93LQ9, D178N)
# Experiment: inhibition kinetics with purified enzyme (Ki app, k2/K); acyl-complex by timed mass spectrometry
# Format: biochemical
# Details: read-out: K i app
smiles,measurement,value
O=C(NC1CCNCC1)[C@@H]1CC[C@@H]2CN1C(=O)N2OS(=O)(=O)O [relebactam],Ki,3.4 ± 0.3 µM
